From paper PMC10580381 (ACS Pharmacology & Translational Science, 2023)

Legend:
HCC827 cells = assay: Annexin V/7-AAD apoptosis assay, HCC827; format: cell-based, human; settings: HCC827, gefitinib 0.2 μM alone, 48 h
H1650 cells = settings: H1650, gefitinib 5 μM alone, 48 h

Compound `COc1cc2ncnc(Nc3ccc(F)c(Cl)c3)c2cc1OCCCN1CCOCC1` [gefitinib] has an apoptotic cell population (HCC827 cells) of 67.8 ± 3.9% and an apoptotic cell population (H1650 cells) of 12.4 ± 0.9%.
